ChEMBL document CHEMBL4765433, “From methylene bridged diindole to carbonyl linked benzimidazoleindole: Development of potent and metabolically stable PCSK9 modulators” (Eur J Med Chem, 2020)

System: HepG2
Test: Cytotoxicity against human HepG2 cells assessed as reduction in cell viability at <=10 uM by MTT assay
Format: cell-based

Compound: Fc1ccc2nc(Cc3c[nH]c4c(F)cccc34)n(CCN3CCOCC3)c2c1
- Activity: Non-Toxic

This is a selection: effects in other tests are not listed, and their absence says nothing.
